The record followed here is paper PMC7989030 (Journal of medicinal chemistry, 2020).

The target in the assay is BRDT BD1 (Homo sapiens, UniProt Q58F21). In words: TR-FRET binding assay, isolated recombinant BD. Background: Time-resolved FRET reads energy transfer from a long-lived donor to a nearby acceptor.

Molecules are shown by their SMILES.

In general, IC50 refers to the midpoint of a concentration-inhibition curve.

Take `COc1cc(OC)c2c(=O)cc(-c3cc(C)c(OC[C@@H](O)CN4CCN(C)CC4)c(C)c3)oc2c1` [Compound 43, (S)-2-(4-(2-Hydroxy-3-(4-methylpiperazin-1-yl)propoxy)-3,5-dimethylphenyl)-5,7-dimethoxy-4H-chromen-4-one]: the IC50 was found to be 2760 ± 237 nM.
